Values quoted from earlier work, collected in PubChem BioAssay AID1811.

Assays:
Test in all cases: PubChem AID 1811
[1] = biological target: Rho GTPase-activating protein 9; details: PDB complex binding affinities from literature; Kd when reported
beta-spectrin = details: PDB complex binding affinities from literature; Kd when reported
phospholipase C delta-1 = details: PDB complex binding affinities from literature; Kd when reported
Mevalonate kinase = details: PDB complex binding affinities from literature; Kd when reported
beta-lactamase ctx-m-9a = details: PDB complex binding affinities from literature; Ki when reported
beta-lactamase tem = details: PDB complex binding affinities from literature; Ki when reported
beta-lactamase = details: PDB complex binding affinities from literature; Ki when reported
[2] = biological target: Cellular retinoic acid-binding protein 2; details: PDB complex binding affinities from literature; Kd when reported
Protein Phosphatase 2 = details: PDB complex binding affinities from literature; IC50 when reported
[3] = biological target: serine/threonine protein phosphatase pp1-gamma; details: PDB complex binding affinities from literature; IC50 when reported
ribonuclease a = details: PDB complex binding affinities from literature; Ki when reported
Alpha-mannosidase II = details: PDB complex binding affinities from literature; IC50 when reported
[4] = biological target: Geranylgeranyl pyrophosphate synthetase; details: PDB complex binding affinities from literature; Ki when reported
dihydrofolate reductase = details: PDB complex binding affinities from literature; Kd when reported
galectin-2 = details: PDB complex binding affinities from literature; Kd when reported
[5] = biological target: phospholipase a2 isoform 3; details: PDB complex binding affinities from literature; Kd when reported
[6] = biological target: OROTIDINE 5-PHOSPHATE DECARBOXYLASE; details: PDB complex binding affinities from literature; Ki when reported
[7] = biological target: Class I phosphodiesterase PDEB1; details: PDB complex binding affinities from literature; IC50 when reported
phosphodiesterase 9a = details: PDB complex binding affinities from literature; IC50 when reported
NarGHI = details: PDB complex binding affinities from literature; Ki when reported
[8] = biological target: Casein kinase II subunit alpha; details: PDB complex binding affinities from literature; Ki when reported
[9] = biological target: histamine n-methyltransferase; details: PDB complex binding affinities from literature; Ki when reported
[10] = biological target: diaminopimelate decarboxylase; details: PDB complex binding affinities from literature; Ki when reported
apolipoprotein = details: PDB complex binding affinities from literature; Kd when reported
citrate synthase = details: PDB complex binding affinities from literature; Kd when reported
[11] = biological target: aromatic amino acid aminotransferase; details: PDB complex binding affinities from literature; Kd when reported
[12] = biological target: Tricomonas vaginalis purine nucleoside phosphorylase(TvPNP); details: PDB complex binding affinities from literature; Ki when reported
arginase 1 = details: PDB complex binding affinities from literature; Ki when reported
diga16 = details: PDB complex binding affinities from literature; Kd when reported
[13] = biological target: l-arginine glycine amidinotransferase; details: PDB complex binding affinities from literature; Ki when reported
uracil-dna glycosylase = details: PDB complex binding affinities from literature; Ki when reported
kes1 protein = details: PDB complex binding affinities from literature; Kd when reported
dipeptidyl peptidase 4 = details: PDB complex binding affinities from literature; Ki when reported
[14] = biological target: phosphoenolpyruvate carboxykinase; details: PDB complex binding affinities from literature; Ki when reported
[15] = biological target: 3-phosphoshikimate 1-carboxyvinyltransferase; details: PDB complex binding affinities from literature; IC50 when reported
shikimate kinase = details: PDB complex binding affinities from literature; Kd when reported
[16] = biological target: Macrophage metalloelastase(F171D); details: PDB complex binding affinities from literature; Kd when reported
[17] = biological target: macrophage metalloelastase (mmp-12); details: PDB complex binding affinities from literature; Kd when reported
beta-arrestin 1 = details: PDB complex binding affinities from literature; Kd when reported
[18] = biological target: phosphoglycerate mutase 1; details: PDB complex binding affinities from literature; Ki when reported
[19] = biological target: triosephosphate isomerase; details: PDB complex binding affinities from literature; Ki when reported
[20] = biological target: aminolevulinic acid dehydratase; details: PDB complex binding affinities from literature; Ki when reported
adenosine deaminase = details: PDB complex binding affinities from literature; IC50 when reported
[21] = biological target: peroxisome proliferator activated receptor ppar; details: PDB complex binding affinities from literature; IC50 when reported
[22] = biological target: phenazine biosynthesis protein phzf; details: PDB complex binding affinities from literature; Kd when reported
[23] = biological target: 1-deoxy-d-xylulose 5-phosphate reductoisomerase; details: PDB complex binding affinities from literature; IC50 when reported

## O=P(O)(O)O[C@@H]1[C@H](O)[C@H](O)[C@@H](OP(=O)(O)O)[C@H](OP(=O)(O)O)[C@H]1O
[1]
  Kd: 0.1 µM
beta-spectrin
  Kd: 40 µM
Phospholipase C delta-1
  Kd: 0.21 µM

## C[C@@](O)(CCOP(=O)(O)OP(=O)(O)O)CC(=O)O
Mevalonate kinase
  Kd: 0.5 µM

## O=C(Cc1cccs1)N[C@H]([Al])c1cccc(C(=O)O)c1
beta-lactamase ctx-m-9a
  Ki: 0.578 µM
beta-lactamase tem
  Ki: 0.064 µM
beta-lactamase
  Ki: 0.017 µM

## CC1=C(/C=C/C(C)=C/C=C/C(C)=C/C=O)C(C)(C)CCC1
[2]
  Kd: 0.12 µM

## C=C1[C@@H](O)[C@@H]2O[C@]3(CC[C@H](/C=C/[C@@H](C)[C@@H]4CC(C)=C[C@@]5(O[C@H](C[C@@](C)(O)C(=O)O)CC[C@H]5O)O4)O3)CC[C@H]2O[C@@H]1[C@@H](O)C[C@H](C)[C@H]1O[C@@]2(CCCCO2)CC[C@H]1C
Protein Phosphatase 2
  IC50: 0.0001 µM
[3]
  IC50: 0.097 µM

## O=c1ccn([C@@H]2O[C@H](CO)[C@@H](O)[C@H]2O)c(=O)[nH]1
Ribonuclease a
  Ki: 40 µM

## OC[C@H](NC[C@H]1NC[C@H](O)[C@@H]1O)c1ccccc1
Alpha-mannosidase II
  IC50: 80 µM

## CC(C)=CCC/C(C)=C/CC/C(C)=C/CC/C(C)=C/COP(=O)(O)OP(=O)(O)O
[4]
  Ki: 25 µM

## Nc1nc2ncc(CNc3ccc(C(=O)N[C@@H](CCC(=O)O)C(=O)O)cc3)nc2c(=O)[nH]1
Dihydrofolate reductase
  Kd: 9.51 µM

## CC(=O)N[C@@H]1[C@@H](O[C@@H]2O[C@H](CO)[C@H](O)[C@H](O)[C@H]2O)[C@@H](O)[C@H](CO)O[C@H]1O
galectin-2
  Kd: 62.2 µM

## O=C(O)c1cccnc1Nc1cccc(C(F)(F)F)c1
[5]
  Kd: 43 µM

## O=c1cc(O)n([C@@H]2O[C@H](COP(=O)(O)O)[C@@H](O)[C@H]2O)c(=O)[nH]1
[6]
  Ki: 8.8 pM

## CC(C)Cn1c(=O)n(C)c(=O)c2[nH]cnc21
[7]
  IC50: 580 µM
Phosphodiesterase 9a
  IC50: 500 µM

## Oc1c(Cl)c(Cl)c(Cl)c(Cl)c1Cl
NarGHI
  Ki: 0.057 µM

## Brc1c(Br)c(Br)c2[nH]cnc2c1Br
[8]
  Ki: 0.3 µM

## CCN(CC)Cc1cc(Nc2ccnc3cc(Cl)ccc23)ccc1O
[9]
  Ki: 0.0186 µM

## O=C(O)CCCCCCCC(=O)O
[10]
  Ki: 89 µM

## NCCCCCC(=O)O
apolipoprotein
  Kd: 20 µM

## O=C(O)CC(=O)C(=O)O
Citrate synthase
  Kd: < 10 µM

## O=C(O)CCCc1ccccc1
[11]
  Kd: 5000 µM

## Nc1ncnc2c([C@@H]3N[C@H](CO)[C@@H](O)[C@H]3O)c[nH]c12
[12]
  Ki: 0.001 µM

## NCCC[C@H](N)C(=O)O
Arginase 1
  Ki: 1000 µM
diga16
  Kd: 0.03 µM
[13]
  Ki: 253 µM

## O=c1cc[nH]c(=O)[nH]1
uracil-dna glycosylase
  Ki: 0.088 µM

## CC(C)CCC[C@@H](C)[C@H]1CC[C@H]2[C@@H]3CC=C4C[C@@H](O)CC[C@]4(C)[C@H]3CC[C@]12C
kes1 protein
  Kd: 0.3 µM

## Cn1c(=O)c2c(nc(N3CCNCC3)n2Cc2ccccc2)n(C)c1=O
Dipeptidyl peptidase 4
  Ki: 0.638 µM

## O=C(O)CC(=O)O
[14]
  Ki: > 50000 µM

## O=C(O)C1=C[C@@H](O)[C@@H](O)[C@H](O)C1
[15]
  IC50: 1200 µM
Shikimate kinase
  Kd: 44 µM

## COc1ccc(S(=O)(=O)N(CC(=O)NO)CC(C)C)cc1
[16]
  Kd: 0.01 µM
[17]
  Kd: 0.01 µM

## O=P(O)(O)OC1C(OP(=O)(O)O)C(OP(=O)(O)O)C(OP(=O)(O)O)C(OP(=O)(O)O)C1OP(=O)(O)O (stereo unspecified)
beta-arrestin 1
  Kd: 0.085 µM
[18]
  Ki: 4 µM

## O=P(O)(O)OC[C@@H](O)CO
[19]
  Ki: 610 µM

## CCCCC(=O)O
[20]
  Ki: 2000 µM

## C[C@H](O)C(CCc1cccc2nc(-c3ccc(Cl)cc3)oc12)n1cnc(C(N)=O)c1 (stereo partly specified)
Adenosine deaminase
  IC50: 0.0086 µM

## CC/C=C\C/C=C\C/C=C\C/C=C\C/C=C\CCCC(=O)O
[21]
  IC50: 4 µM

## Nc1c(O)cccc1C(=O)O
[22]
  Kd: 1.4 µM

## O=P(O)(O)C(Nc1ccc(Cl)cn1)P(=O)(O)O
[23]
  IC50: 7 µM
